Values quoted from earlier work as cited in patent publication EP1935424A1, “PHARMACEUTICAL COMPOSITIONS COMPRISING COMBINED ANTIDIABETIC SUBSTANCES FOR USE IN DIABETES MELLITUS” (ESPINOZA ABDALA, Leopoldo de Jesús, priority 2005, dated 2007).

Details: oral / gastrointestinal tract, in words

absorption: well absorbed orally
SMILES: CN(CCOc1ccc(CC2SC(=O)NC2=O)cc1)c1ccccn1 (stereo not shown) [Rosiglitazone]
